According to US7118879:

Experiments:
[1] = molecular target: human neutrophil elastase (immobilized on Reacti-Gel agarose beads, or free) (human) (UniProt P08246); test: HNE beads, pH 2.2 wash
[2] = molecular target: human neutrophil elastase (immobilized on Reacti-Gel agarose beads, or free) (human) (UniProt P08246); test: HNE beads, pH 3.0 wash
[3] = molecular target: human neutrophil elastase (immobilized on Reacti-Gel agarose beads, or free) (human) (UniProt P08246); test: HNE beads, pH 4.0 wash
[4] = molecular target: human neutrophil elastase (immobilized on Reacti-Gel agarose beads, or free) (human) (UniProt P08246); test: HNE beads, pH 5.0 wash
[5] = molecular target: human neutrophil elastase (immobilized on Reacti-Gel agarose beads, or free) (human) (UniProt P08246); test: HNE beads, pH 6.0 wash
[6] = molecular target: human neutrophil elastase (immobilized on Reacti-Gel agarose beads, or free) (human) (UniProt P08246); test: HNE beads, pH 7.0 wash
[7] = molecular target: human neutrophil elastase (immobilized on Reacti-Gel agarose beads, or free) (human) (UniProt P08246); test: HNE beads, pH 3.5 wash
[8] = molecular target: human neutrophil elastase (immobilized on Reacti-Gel agarose beads, or free) (human) (UniProt P08246); test: HNE beads, pH 4.0 wash; remark: listed apart in the source
[9] = molecular target: human neutrophil elastase (immobilized on Reacti-Gel agarose beads, or free) (human) (UniProt P08246); test: HNE beads, pH 4.5 wash
[10] = molecular target: human neutrophil elastase (immobilized on Reacti-Gel agarose beads, or free) (human) (UniProt P08246); test: HNE beads, pH 5.0 wash; remark: listed apart in the source
[11] = molecular target: human neutrophil elastase (immobilized on Reacti-Gel agarose beads, or free) (human) (UniProt P08246); test: HNE beads, pH 5.5 wash
[12] = molecular target: human neutrophil elastase (immobilized on Reacti-Gel agarose beads, or free) (human) (UniProt P08246); test: HNE beads, pH 6.0 wash; remark: listed apart in the source
[13] = molecular target: human neutrophil elastase (immobilized on Reacti-Gel agarose beads, or free) (human) (UniProt P08246); test: HNE beads, pH 7.0 wash; remark: listed apart in the source
[14] = molecular target: human neutrophil elastase (immobilized on Reacti-Gel agarose beads, or free) (human) (UniProt P08246); test: HNE beads, pH 4.25 wash
[15] = molecular target: human neutrophil elastase (immobilized on Reacti-Gel agarose beads, or free) (human) (UniProt P08246); test: HNE beads, pH 4.75 wash
[16] = molecular target: human neutrophil elastase (immobilized on Reacti-Gel agarose beads, or free) (human) (UniProt P08246); test: HNE beads, pH 2.2 elution
[17] = molecular target: human neutrophil elastase (immobilized on Reacti-Gel agarose beads, or free) (human) (UniProt P08246); test: pH 2.2 elution from beads
[18] = molecular target: trypsin (active, immobilized on beads, or in solution) (UniProt P00760); test: trypsin beads, pH 2.2 elution
[19] = molecular target: human neutrophil elastase (immobilized on Reacti-Gel agarose beads, or free) (human) (UniProt P08246); test: HNE beads
[20] = molecular target: trypsin (active, immobilized on beads, or in solution) (UniProt P00760); test: trypsin beads
[21] = molecular target: anhydro-trypsin (agarose-immobilized) (UniProt P00760); test: anhydrotrypsin beads
[22] = molecular target: trypsin (active, immobilized on beads, or in solution) (UniProt P00760); test: eluted from trypsin beads
[23] = molecular target: trypsin (active, immobilized on beads, or in solution) (UniProt P00760); test: acid-eluted from trypsin beads
[24] = molecular target: anhydro-trypsin (agarose-immobilized) (UniProt P00760); test: eluted from anhydrotrypsin beads
[25] = molecular target: human neutrophil elastase (immobilized on Reacti-Gel agarose beads, or free) (human) (UniProt P08246); test: HNE beads, pH 3.75 wash
[26] = molecular target: human neutrophil elastase (immobilized on Reacti-Gel agarose beads, or free) (human) (UniProt P08246); test: acid-eluted from HNE beads
[27] = molecular target: human neutrophil elastase (immobilized on Reacti-Gel agarose beads, or free) (human) (UniProt P08246); test: phage mixture on HNE beads, pH 4.0 wash
[28] = molecular target: human neutrophil elastase (immobilized on Reacti-Gel agarose beads, or free) (human) (UniProt P08246); test: phage mixture on HNE beads, pH 5.0 wash
[29] = molecular target: human neutrophil elastase (immobilized on Reacti-Gel agarose beads, or free) (human) (UniProt P08246); test: phage mixture on HNE beads, pH 6.0 wash
[30] = molecular target: human neutrophil elastase (immobilized on Reacti-Gel agarose beads, or free) (human) (UniProt P08246); test: phage mixture on HNE beads, pH 7.0 wash
[31] = molecular target: human neutrophil elastase (immobilized on Reacti-Gel agarose beads, or free) (human) (UniProt P08246); test: mixture of two phage on HNE beads, pH 4.0 fraction

Substance: BPTI(K15L)-III MA phage (designed binder)
- % of input phage [1]: 0.011%
- total pfu in fraction [1]: 59000 pfu
- % of input phage [2]: 0.21%
- total pfu in fraction [2]: 1.1e+06 pfu
- % of input phage [3]: 0.82%
- total pfu in fraction [3]: 4.3e+06 pfu
- % of input phage [4]: 0.4%
- total pfu in fraction [4]: 2.1e+06 pfu
- % of input phage [5]: 0.086%
- total pfu in fraction [5]: 450000 pfu
- % of input phage [6]: 0.032%
- total pfu in fraction [6]: 170000 pfu
- % of input [7]: 0.004%
- total pfu in fraction [7]: 13000 pfu
- % of input [8]: 0.014%
- total pfu in fraction [8]: 51000 pfu
- % of input [9]: 0.085%
- total pfu in fraction [9]: 310000 pfu
- % of input [10]: 0.152%
- total pfu in fraction [10]: 560000 pfu
- % of input [11]: 0.146%
- total pfu in fraction [11]: 530000 pfu
- % of input [12]: 0.1%
- total pfu in fraction [12]: 360000 pfu
- % of input [13]: 0.082%
- total pfu in fraction [13]: 300000 pfu
- % of input [14]: 0.142%
- total pfu in fraction [14]: 520000 pfu
- % of input [15]: 0.276%
- total pfu in fraction [15]: 990000 pfu
- % of input phage recovered [16]: 0.1%
- total pfu in elution fraction [16]: 1e+06 pfu
- ratio of phage bound to HNE beads over trypsin beads [17]: 36 fold
- % of input phage recovered [18]: 0.005%
- total pfu in elution fraction [18]: 52000 pfu

Substance: M13.3X7 phage (BPTI:VIII fusion with one EGGGS linker)
- relative binding (to M13MP18) [19]: 3.3 fold
- relative binding (to M13MP18) [20]: 2300 fold
- relative binding (to M13MP18) [21]: 250 fold
- eluted phage, % of input [22]: 1.4%
- eluted phage, % of input [23]: 1.15%
- eluted phage, % of input [24]: 25%

Substance: BPTI(K15V,R17L)-III MA phage (designed binder)
- % of input phage [2]: 0.068%
- total pfu recovered [2]: 2.65e+06 pfu
- % of input phage [3]: 0.515%
- total pfu recovered [3]: 2.02e+07 pfu
- % of input phage [4]: 0.241%
- total pfu recovered [4]: 9.45e+06 pfu
- % of input phage [5]: 0.138%
- total pfu recovered [5]: 5.42e+06 pfu
- % of input phage [6]: 0.081%
- total pfu recovered [6]: 3.19e+06 pfu
- % of input phage [7]: 0.106%
- total pfu recovered [7]: 4.16e+06 pfu
- % of input phage [9]: 0.355%
- total pfu recovered [9]: 1.39e+07 pfu
- % of input phage [25]: 0.235%
- total pfu recovered [25]: 9.2e+06 pfu

Substance: BPTI(K15L,MGNG)-III MA phage (designed binder)
- relative binding (to M13MP18) [19]: 14000 fold
- relative binding (to M13MP18) [20]: 2 fold
- % of input phage [3]: 0.069%
- total pfu recovered [3]: 142000 pfu
- % of input phage [4]: 0.139%
- total pfu recovered [4]: 285000 pfu
- % of input phage [5]: 0.079%
- total pfu recovered [5]: 161000 pfu
- % of input phage [6]: 0.046%
- total pfu recovered [6]: 94200 pfu
- % of input [7]: 0.014%
- % of input phage [7]: 0.026%
- total pfu in fraction [7]: 38000 pfu
- total pfu recovered [7]: 52900 pfu
- % of input [8]: 0.048%
- total pfu in fraction [8]: 130000 pfu
- % of input [9]: 0.13%
- % of input phage [9]: 0.211%
- total pfu in fraction [9]: 360000 pfu
- total pfu recovered [9]: 432000 pfu
- % of input [10]: 0.316%
- total pfu in fraction [10]: 870000 pfu
- % of input [11]: 0.264%
- total pfu in fraction [11]: 730000 pfu
- % of input [12]: 0.227%
- total pfu in fraction [12]: 630000 pfu
- % of input [13]: 0.163%
- total pfu in fraction [13]: 450000 pfu
- % of input [14]: 0.18%
- total pfu in fraction [14]: 500000 pfu
- % of input [15]: 0.46%
- total pfu in fraction [15]: 1.3e+06 pfu
- eluted phage, % of input [26]: 4.1%
- eluted phage, % of input [23]: 0.001%
- % of input [27]: 1.67%
- total ampicillin transducing units (transducing units) [27]: 743000
- % of input [28]: 0.304%
- total ampicillin transducing units (transducing units) [28]: 135000
- % of input [29]: 0.162%
- total ampicillin transducing units (transducing units) [29]: 71800
- % of input [30]: 0.313%
- total ampicillin transducing units (transducing units) [30]: 139000
- fold enrichment over BPTI-III MK phage [31]: 984 fold
